Source: article PMC10706821, “Folate-Appended Hydroxypropyl-β-Cyclodextrin Induces Autophagic Cell Death in Acute Myeloid Leukemia Cells” (International Journal of Molecular Sciences, 2023)

How the values were obtained:
AML cell lines = assay: modified MTT assay, statements over all AML cell lines; format: cell-based, human; conditions: 72 h
Description: The trypan blue dye exclusion method was used to evaluate cell viability. Cells (HL-60, THP1, SKM1 and Kasumi1 cells) were seeded in flat-bottomed 96-well plates at a density of 1 × 10^4 cells in 100 µL medium per well and incubated with FA-HP-β-CyD (0, 0,1, 0.25, 0.5, 0.75, 1 mM) or HP-β-CyD (0, 1, 2.5, 5, 10 mM) for 72 h. Then, viable cells were counted. Cell proliferation was evaluated by a modified MTT assay using Cell Counting Kit-8 (Dojindo Molecular Technologies, Kumamoto, Japan), as previously described. AML cells were cultured in 96-well plates at a density of 1 × 10^4 cells in 100 µL medium per well and incubated with FA-HP-β-CyD or HP-β-CyD for 72 h. The half-maximal inhibitory concentration values (IC50) were determined by non-linear regression using CalcuSyn software version 1.1.1 (Biosoft, Cambridge, UK), as previously described. After obtaining IC50 values for each agent, the antileukemic activity of FA-HP-β-CyD plus cytosine arabinoside (Ara-C) or Venetoclax was evaluated, as previously described. Five concentrations (0.25-, 0.5-, 0.75-, 1.0-, and 1.5-fold the IC50) of FA-HP-β-CyD plus Ara-C or Venetoclax were used to treat AML cells. […] This method is capable of quantifying synergistic (CI < 1) and antagonistic (CI > 1) effects at different dose and effect levels.

[1] = peripheral blood cell count after intraperitoneal administration; conditions: HP-β-CyD 10,000 mg/kg i.p., seven repeat injections, Day 8

Compound	IC50 fold lower than those of HP-β-CyD (AML cell lines)	Hb [1] [g/dL]
folate-conjugated HP-β-CyD [FA-HP-β-CyD]	at least 8 fold	
CC(O)COC[C@H]1O[C@@H]2O[C@H]3[C@H](O)[C@@H](O)[C@@H](O[C@H]4[C@H](O)[C@@H](O)[C@@H](O[C@H]5[C@H](O)[C@@H](O)[C@@H](O[C@H]6[C@H](O)[C@@H](O)[C@@H](O[C@H]7[C@H](O)[C@@H](O)[C@@H](O[C@H]8[C@H](O)[C@@H](O)[C@@H](O[C@H]1[C@H](O)[C@H]2O)O[C@@H]8COCC(C)O)O[C@@H]7COCC(C)O)O[C@@H]6COCC(C)O)O[C@@H]5COCC(C)O)O[C@@H]4COCC(C)O)O[C@@H]3COCC(C)O (stereo partly drawn) [HP-β-CyD, 2-Hydroxypropyl-β-cyclodextrin]		14.5 ± 0.78
